# Antibody variant affinities, Ab-14 heavy chain, assay 1

The measurements come from Engelhart et al. 2022 (doi:10.1038/s41597-022-01779-4) through the FLAb antibody collection.

Antigen: PDVDLGDISGINAS, a 14-residue peptide of the SARS-CoV-2 spike HR2 region.

Parent scFv Ab-14: VH joined to VL by three GGGGS repeats. Changes lie in the heavy chain CDRs alone.
VH: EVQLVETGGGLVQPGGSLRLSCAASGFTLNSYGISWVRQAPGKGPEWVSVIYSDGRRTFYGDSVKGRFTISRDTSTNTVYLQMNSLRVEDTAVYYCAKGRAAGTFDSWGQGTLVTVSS
VL: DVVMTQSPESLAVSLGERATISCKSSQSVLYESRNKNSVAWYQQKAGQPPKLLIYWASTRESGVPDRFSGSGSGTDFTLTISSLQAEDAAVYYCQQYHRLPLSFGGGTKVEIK

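Phage display of a naive human antibody library on the peptide gave the parent. Library AAYL49 holds single substitutions and randomly drawn double and triple substitutions in the CDRs. AlphaSeq pools MATa yeast showing the antibodies with MATalpha yeast showing the peptide. Binding brings cells together so that they mate, and sequencing counts the barcode pairs among the diploids. The ratio of observed to expected reads was calibrated, replicate by replicate, on BCL2-family standards whose Kd was known from biolayer interferometry. There are three technical replicates.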

The whole VH of each variant is written out.
The Kd shown is the geometric mean over detected replicates; a lower Kd is a better binder.
Where no diploid with the target was found in any replicate, the entry reads "nd": below detection, most likely a poor binder, though not proof of it.
The list is sorted by this average, lowest first, undetected variants last.
Empty control strains, which show no peptide, gave a signal in 15% of pairings with library AAYL49; the median was 11 µM and 95% of these signals were weaker than 680 nM. No background was subtracted.

| VH | apparent Kd | seen in |
|---|---|---|
| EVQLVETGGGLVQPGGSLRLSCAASGFTLNSYGISWVRQAPGKGPEWVSVIYSDGRGRFYGDSVKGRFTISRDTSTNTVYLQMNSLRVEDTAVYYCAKGNAAGTFDSWGQGTLVTVSS | 240 nM | 1/3 |
| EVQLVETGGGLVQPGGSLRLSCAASGFTLNSYGISWVRQAPGKGPEWVSTISSDGRRTFYGDSVKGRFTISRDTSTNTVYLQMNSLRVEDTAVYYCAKGRYAGTFDSWGQGTLVTVSS | 420 nM | 1/3 |
| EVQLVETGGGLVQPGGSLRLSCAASGFTLQSYGKSWVRQAPGKGPEWVSTIYSDGRRTFYGDSVKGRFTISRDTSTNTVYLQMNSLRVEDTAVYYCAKGRAAGTFDSWGQGTLVTVSS | 650 nM | 1/3 |
| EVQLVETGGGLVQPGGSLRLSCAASGFTENSYGISWVRQAPGKGPEWVSVEYSDGRRTFYGDSVKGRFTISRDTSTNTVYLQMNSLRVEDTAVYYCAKGRAAGCFDSWGQGTLVTVSS | 3.0 µM | 1/3 |
| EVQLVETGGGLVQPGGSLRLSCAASGFTLNSYGASWVRQAPGKGPEWVSVIYVDGRRTRYGDSVKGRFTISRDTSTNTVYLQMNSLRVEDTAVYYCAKGRAAGTFDSWGQGTLVTVSS | 8.9 µM | 1/3 |
| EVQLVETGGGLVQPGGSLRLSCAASGVTLNSYGIQWVRQAPGKGPEWVSVIYSDGRRTFYGDSVKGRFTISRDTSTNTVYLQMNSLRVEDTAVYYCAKGRAAGTFDGWGQGTLVTVSS | 19 µM | 1/3 |
| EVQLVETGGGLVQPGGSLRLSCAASGFTLNNYGISWVRQAPGKGPEWVSVIYSDGRREFYGDSRKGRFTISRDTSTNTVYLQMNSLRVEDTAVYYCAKGRAAGTFDSWGQGTLVTVSS | 25 µM | 2/3 |
| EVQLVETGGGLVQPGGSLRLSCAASGKTLNSMGISWVRQAPGKGPEWVSVIYSDGRRTFYGDSVKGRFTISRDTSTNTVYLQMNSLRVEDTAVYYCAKGRAAGTSDSWGQGTLVTVSS | 34 µM | 3/3 |
| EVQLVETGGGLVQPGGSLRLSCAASGFTLNSYQISWVRQAPGKGPEWVSVIYSQGRRTFYGDSVKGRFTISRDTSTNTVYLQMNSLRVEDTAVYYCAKGRAAGTCDSWGQGTLVTVSS | 39 µM | 2/3 |
| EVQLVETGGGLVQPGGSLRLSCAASGFTLNSYGISWVRQAPGKGPEWVSRIYSDGMRTFYGDSVKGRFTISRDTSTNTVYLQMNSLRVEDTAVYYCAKGRALGTFDSWGQGTLVTVSS | 130 µM | 1/3 |
| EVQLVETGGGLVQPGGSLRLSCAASGFTLNSYGNSWVRQAPGKGPEWVSVIYSDWRRTFYGDSVKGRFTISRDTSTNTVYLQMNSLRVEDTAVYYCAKGPAAGTFDSWGQGTLVTVSS | 140 µM | 2/3 |
| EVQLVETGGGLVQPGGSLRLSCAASGWDLNSYGISWVRQAPGKGPEWVSVIYSFGRRTFYGDSVKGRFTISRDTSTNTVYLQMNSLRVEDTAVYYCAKGRAAGTFDSWGQGTLVTVSS | 200 µM | 3/3 |
| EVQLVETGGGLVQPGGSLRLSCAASGFTLNSYGISWVRQAPGKGPEWVSSIYSDGRRTFYGDSVKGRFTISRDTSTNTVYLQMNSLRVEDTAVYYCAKGRAKGTFDPWGQGTLVTVSS | nd | 0/3 |
| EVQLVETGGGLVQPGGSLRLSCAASGFTLNSYGISWVRQAPGKGPEWVSVIYSDGRRTFYGDSVKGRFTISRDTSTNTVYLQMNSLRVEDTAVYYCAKGRAAYVFDSWGQGTLVTVSS | nd | 0/3 |
| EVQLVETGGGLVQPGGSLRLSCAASGFTQNSYGISWVRQAPGKGPEWVSVIYSDGRRTFYMDSVKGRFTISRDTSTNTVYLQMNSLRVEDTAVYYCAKGRAAPTFDSWGQGTLVTVSS | nd | 0/3 |
| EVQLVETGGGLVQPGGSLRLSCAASGFTLNSYGISWVRQAPGKGPEWVSVIYSLGRCTFYGDSVKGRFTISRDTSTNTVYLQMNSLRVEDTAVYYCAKGSAAGTFDSWGQGTLVTVSS | nd | 0/3 |
| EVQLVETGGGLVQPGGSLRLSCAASGFTHNSYGISWVRQAPGKGPEWVSDIYSDGRRTFLGDSVKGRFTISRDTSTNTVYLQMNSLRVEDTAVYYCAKGRAAGTFDSWGQGTLVTVSS | nd | 0/3 |
| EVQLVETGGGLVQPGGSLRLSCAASGCTLNSYGISWVRQAPGKGPEWVSVIYSDGRRTFAGDSVKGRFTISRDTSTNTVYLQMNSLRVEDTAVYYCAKGRAAGTWDSWGQGTLVTVSS | nd | 0/3 |
| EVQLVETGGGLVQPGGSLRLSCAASGFTLNSYGGSWVRQAPGKGPEWVSVIASDGRRTFYGDSVKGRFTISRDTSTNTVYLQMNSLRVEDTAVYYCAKARAAGTFDSWGQGTLVTVSS | nd | 0/3 |
| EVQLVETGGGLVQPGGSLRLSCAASGFTLNSYGIRWVRQAPGKGPEWVSVIYSDGRRTFYGDGVKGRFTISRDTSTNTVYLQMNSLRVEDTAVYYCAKGRAANTFDSWGQGTLVTVSS | nd | 0/3 |
| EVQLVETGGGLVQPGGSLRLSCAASGFTLNSYGISWVRQAPGKGPEWVSPIYSDGRRTFYGDLVKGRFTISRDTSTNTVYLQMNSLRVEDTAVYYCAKGRAAGTFDRWGQGTLVTVSS | nd | 0/3 |
| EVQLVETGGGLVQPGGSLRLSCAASGFTLNSTGWSWVRQAPGKGPEWVSVIYSDGRRVFYGDSVKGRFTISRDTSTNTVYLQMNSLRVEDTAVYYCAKGRAAGTFDSWGQGTLVTVSS | nd | 0/3 |
| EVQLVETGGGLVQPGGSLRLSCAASGFTLNSYGISWVRQAPGKGPEWVSVICSDGRRTFYGDSVKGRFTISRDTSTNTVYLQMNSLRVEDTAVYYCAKGRAAGLRDSWGQGTLVTVSS | nd | 0/3 |
| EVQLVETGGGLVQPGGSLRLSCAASGFTLNSDGMSWVRQAPGKGPEWVSVIYSDGRRNFYGDSVKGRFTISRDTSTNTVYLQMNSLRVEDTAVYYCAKGRAAGTFDSWGQGTLVTVSS | nd | 0/3 |
| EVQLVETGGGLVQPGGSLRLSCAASGFTLNSYGISWVRQAPGKGPEWVSVIYSDGRRTFYGDSVKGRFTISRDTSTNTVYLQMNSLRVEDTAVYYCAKGRAAGAFWTWGQGTLVTVSS | nd | 0/3 |

Excerpt, the final 2 entries:

| VH | apparent Kd | seen in |
|---|---|---|
| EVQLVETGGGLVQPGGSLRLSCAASGFTLNSDGMSWVRQAPGKGPEWVSVIYSDGRRNFYGDSVKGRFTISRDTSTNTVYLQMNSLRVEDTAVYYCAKGRAAGTFDSWGQGTLVTVSS | nd | 0/3 |
| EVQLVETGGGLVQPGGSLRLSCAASGFTLNSYGISWVRQAPGKGPEWVSVIYSDGRRTFYGDSVKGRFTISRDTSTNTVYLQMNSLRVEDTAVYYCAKGRAAGAFWTWGQGTLVTVSS | nd | 0/3 |